Values of other authors in patent US20070280970A1, “Methods of Treating Wounds With Gonyautoxins” (published 2007).
Read-outs that look alike come from different tables or passages of the source.

System: chronic anal fissure
Settings: for Complications / Healing rate at 3 months (%) / Recurrence (%): ointment
[1] = 25 patients, N Eng J Med 1999, 341: 65-9
[2] = 26 patients, Dis Colon Rectum 2002, 46: 805-8

| SMILES | Side effects of treatment (chronic anal fissure) | Change in MVCP (long term treatment (over three months)) | Complications [1] | Healing rate at 3 months (%) [1] [%] | Recurrence (%) [1] [%] | Complications [2] | Healing rate at 3 months (%) [2] [%] | Recurrence (%) [2] [%] | Relapse occurrence (treated anal fissure patients) [%] | Side effects (topical application) |
| --- | --- | --- | --- | --- | --- | --- | --- | --- | --- | --- |
| O=[N+]([O-])OCC(CO[N+](=O)[O-])O[N+](=O)[O-] | moderate to severe headaches | without a significant change | Headaches | 60 | 12 | Moderate | 36 | 31 | 31 |  |
| COC(=O)C1=C(C)NC(C)=C(C(=O)OC)C1c1ccccc1[N+](=O)[O-] |  |  |  |  |  |  |  |  |  | does not produce any significant side effects |
